Patent publication US20250345446A1 (Draupnir Bio ApS, priority 2022, published 2025)

Molecular target: Sortilin (full length sortilin receptor expressed on HEK293 cells) (Homo sapiens (Human)) (UniProt Q99523)

EC50 (read off the curve) [cont. C] | Substance
30 nM | Adalimumab-…-OH (SEQ ID NO: 194) (antibody)
40 nM | Adalimumab-… (SEQ ID NO.: 192) (antibody)
